{"source": "paper PMC8540567", "about": "“Degradation of 2,4,6-Trinitrotoluene (TNT): Involvement of Protocatechuate 3,4-Dioxygenase (P34O) in Buttiauxella sp. S19-1” (2021)", "tested_on": "rP34O (recombinant protocatechuate 3,4-dioxygenase, BuP34O)", "assay": "substrate consumption by absorbance at […] nm, Michaelis-Menten fit", "settings": "50 mM PBS pH 7.2, 35 °C; 10-400 μM substrate"}
{"smiles": "O=C(O)c1ccc(O)c(O)c1", "values": [{"measurement": "Km", "value": 101, "unit": "µM"}]}
